Laboratory results taken from patent publication US20250353859A1, “COMPOUNDS AS CCR6 INHIBITORS” (Hoffmann-La Roche Inc., priority 2023, published 2025).

Sequences of proteins named here, by UniProt entry; tags and fusion partners are left off.
UniProt P51684, whole entry: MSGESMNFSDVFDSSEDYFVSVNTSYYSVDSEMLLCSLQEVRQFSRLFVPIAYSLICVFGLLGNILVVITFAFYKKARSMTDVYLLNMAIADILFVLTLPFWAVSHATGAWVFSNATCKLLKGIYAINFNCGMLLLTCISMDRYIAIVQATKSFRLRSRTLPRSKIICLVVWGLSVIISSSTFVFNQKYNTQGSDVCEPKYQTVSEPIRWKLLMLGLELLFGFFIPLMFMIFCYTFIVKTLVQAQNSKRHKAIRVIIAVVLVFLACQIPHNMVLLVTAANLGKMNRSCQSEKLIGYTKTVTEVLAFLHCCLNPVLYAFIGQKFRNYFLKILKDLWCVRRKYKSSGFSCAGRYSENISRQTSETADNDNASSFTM

Target: human CCR6 (Homo sapiens, UniProt P51684)
Experiment: Human CCR6-CRE reporter assay
Settings: read-out: Activity in human CCR6-CRE reporter assay; scaffold variant X = O, R1 = CH3

`COc1ccc(NC2CCN(S(=O)(=O)c3ccc(OC)cc3)CC2)cc1` showed an IC50 of over 20 µM.
